Results as given in ChEMBL document CHEMBL4513216, “Probing the Open Global Health Chemical Diversity Library for Multistage-Active Starting Points for Next-Generation Antimalarials” (ACS Infect Dis, 2020).
Only a part of the results on these compounds is given; other tests are left out.

System: HepG2
Assay: Toxicity liver stage against HepG2, at 10uM
Format: cell-based
Parameters: test concentration 10 uM, cell line HepG2-A16-CD81EGFP
Settings: human, hepg2, 10 µM
Summary of the method: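 Uninfected HepG2-A16-CD81EGFP cells, 3 × 10^3 per well, 1536-well, plated on prespotted compound at 10 μM final, parasite-free screening media added to match infected plates; puromycin 10 μM positive, DMSO 0.5% negative; run in parallel with 48 h PbLuc assay at 37 °C, 5% CO2; viability by CellTiter-Glo luminescence, normalized to controls.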

Structure (SMILES)	INHIBITION
CCN1CCC(Nc2ccc(OC)c(OC)c2)CC1	-2.46%
COc1ccc(NC2CCN(C)CC2)cc1OC	-0.628%
Cc1cccc(NC2CCN(Cc3nnc(C(C)C)o3)CC2)c1	-9.35%
Cc1ccccc1NC1CCNCC1	1.97%
Cc1ccc(NC2CCN(C(C)c3nnc(C)o3)CC2)cc1 (stereo not given)	2.65%
